Measured values published in patent publication US4945171A, “Xanthene dyes having a fused (C) benzo ring” (Molecular Probes, Inc., priority 1987, dated 1990).

Experiment: absorption spectra (maxima and extinction coefficients) of benzo[c]xanthene dyes
Type: physicochemical
[1] = 40 mM potassium phosphate buffer, pH 9.0

Absorbance maximum (first) [1] [nm]	extinction coefficient (first maximum) [1]	Absorbance maximum (second) [1] [nm]	extinction coefficient (second maximum) [1]	ABSORPTION, ACID MAXIMA (second) (acid form, longer-wavelength maximum) [NM]	Compound
542	21,100 cm^-1 M^-1				5'-(and-6')carboxy-3-hydroxy-10-methoxy-spiro[7H-benzo[c]xanthene-7,1'(3'H)-isobenzofuran]-3'-one [Compound 12]
480	23,500 cm^-1 M^-1	508	26,200 cm^-1 M^-1		5'-(and-6')carboxy-10-hydroxy-3-methoxy-spiro[7H-benzo[c]xanthene-7,1'(3'H)-isobenzofuran]-3'-one [Compound 13]
				508	O=C1OC2(c3ccc(O)cc3Oc3c2ccc2cc(O)ccc32)c2ccccc21 (stereo not shown) [Compound 1, 3,10-dihydroxy-spiro[7H-benzo[c]xanthen-7,1'(3'H)-isobenzofuran]-3'-one]
